The source of these data is patent publication US9624217B2, “Dihydropyrrolopyridine inhibitors of ROR-gamma” (Vitae Pharmaceuticals, Inc., priority 2014, dated 2017).

Sequences of proteins named here, by UniProt entry; tags and fusion partners are left off. A line that says so, or that is headed by a name, gives the form on record, which may keep a tag or linker. Residues count along the entry.
UniProt P51449, 269-508: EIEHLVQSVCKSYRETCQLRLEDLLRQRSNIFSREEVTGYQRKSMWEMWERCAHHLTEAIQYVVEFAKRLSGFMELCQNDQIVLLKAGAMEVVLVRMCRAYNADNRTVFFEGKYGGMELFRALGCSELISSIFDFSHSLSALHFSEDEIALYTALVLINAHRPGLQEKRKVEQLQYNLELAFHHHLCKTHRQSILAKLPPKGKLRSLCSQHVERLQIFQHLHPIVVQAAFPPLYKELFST
UniProt P51449, other isoform, or with tags, fused parts or gaps: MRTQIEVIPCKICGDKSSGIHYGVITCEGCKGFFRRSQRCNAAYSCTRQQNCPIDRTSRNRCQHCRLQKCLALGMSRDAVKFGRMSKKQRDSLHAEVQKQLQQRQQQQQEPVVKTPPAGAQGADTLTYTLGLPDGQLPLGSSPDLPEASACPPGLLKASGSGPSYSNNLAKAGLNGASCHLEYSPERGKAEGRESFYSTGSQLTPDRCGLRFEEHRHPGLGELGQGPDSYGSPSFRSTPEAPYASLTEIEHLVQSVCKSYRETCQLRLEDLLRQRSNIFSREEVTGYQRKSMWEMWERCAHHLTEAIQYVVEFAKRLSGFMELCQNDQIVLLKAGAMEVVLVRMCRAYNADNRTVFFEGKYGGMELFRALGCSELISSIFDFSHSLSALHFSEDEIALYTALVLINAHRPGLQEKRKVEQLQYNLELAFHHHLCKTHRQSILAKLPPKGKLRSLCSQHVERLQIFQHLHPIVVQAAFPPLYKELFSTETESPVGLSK

In general, pKi refers to the negative decadic logarithm of the Ki, by convention in mol/L. For orientation: pIC50 means the negative decadic logarithm of the IC50, by convention in mol/L.

pIC50, pKi: −log10 of the molar value.

Assay [1] deals with recombinant RORγ Ligand Binding Domain (LBD) (Homo sapiens (Human), UniProt P51449). In words: Radio-Ligand RORγ Binding Assay (Assay 1). The conditions noted are these: SPA competition with 25-hydroxy [26,27-3H]-cholesterol, cell-free; read-out: RORγ Binding Ki Range. The method, then:
Radio-Ligand RORγ Binding Assay (Assay 1)
Compounds of the present invention were tested for ability to bind to RORγ in a cell-free competition assay with commercially available radio-ligand (RL), 25-hydroxy [26,27-^3H]-cholesterol (PerkinElmer, Cat. #NET674250UC), for a ligand binding site on a recombinant RORγ Ligand Binding Domain (LBD) protein expressed as a 6×His-Glutathione-S-Transferase (GST) fusion. […] The plate was shaken at 700 rpm for 20 min and incubated for 10 min at rt, after which 40 μL of poly-Lys YSi SPA beads (PerkinElmer, Cat. #RPNQ0010) were added to achieve 50 μg of the beads per well. The plate was incubated on an orbital shaker for 20 min and then for 10 min without agitation at rt. SPA signal for tritium beta radiation was registered on PerkinElmer Microbeta plate reader. […] The percent inhibition vs. concentration data were fit into a four-parameter model, and IC50 values were calculated from the fit as the concentrations corresponding to the inflection points on the dose-response curves.

In assay [2] the target is full-length RORγt (Homo sapiens (Human), UniProt P51449). Briefly: RORγt 5×RORE Assay in Jurkat Cells (Assay 2). The class given is cell-based. The conditions noted are these: secreted Nanoluc luciferase 5×RORE reporter, 16-18 hrs, read-out: RORγt5X IC50 Range. The method, then: [formula] RORγt 5×RORE Assay in Jurkat Cells (Assay 2)
Compounds of the present invention were tested for RORγ inverse agonist activity in a cell-based, transcriptional activity assay. […] (Promega, Cat. #N1021) using KpnI and HindIII restriction sites. […] Luciferase activity in the conditioned supernatants was determined with NanoGlo® assay reagents (Promega, Cat. #N1130).

For the compound `CCS(=O)(=O)c1ccc(CNC(=O)c2cnc3c(c2)CN(c2ncc(CO)c(C(F)(F)F)n2)[C@H]3C(C)C)cc1` [Compound 12], the pKi in assay [1] was 6.00 to 7.00. For the same compound, in assay [2], the pIC50 was < 6.00.

For the compound `CCS(=O)(=O)c1ccc(CNC(=O)c2cnc3c(c2)CN(Cc2cnc(C(F)(F)F)nc2)[C@H]3C(C)C)cc1` [Compound 26], the pKi in assay [1] was 6.00 to 7.00. For `CCS(=O)(=O)c1ccc(CNC(=O)c2cnc3c(c2)CN(Cc2ccc(C(F)(F)F)cn2)[C@H]3C(C)C)cc1` [Compound 27], the pKi in assay [1] is > 7.00. Further, the pIC50 in assay [2] was 6.00 to 7.00.

In the case of `CCS(=O)(=O)c1ccc(CNC(=O)c2cnc3c(c2)C(=O)N(Cc2ccc(C(F)(F)F)cc2)[C@H]3C(C)C)cc1` [Compound 32], the pKi in assay [1] is > 7.00. Besides, the pIC50 in assay [2] is 6.00 to 7.00. The like results for `CCS(=O)(=O)c1ccc(CNC(=O)c2cnc3c(c2)CN(Cc2ccc(-c4nnn(C)n4)cc2)[C@H]3C(C)C)cc1` [Compound 38] were, in that order, > 7.00 and 6.00 to 7.00. With `CCS(=O)(=O)c1ccc(CNC(=O)c2cnc3c(c2)CN(Cc2ccc(C(F)(F)F)nc2)[C@H]3C(C)C)cc1` [Compound 39], in assay [2], the pIC50 is > 7.00. `CCS(=O)(=O)c1ccc(CNC(=O)c2cnc3c(c2)CN(Cc2ccc(C(F)(F)F)nc2)[C@@H]3C(C)C)cc1` [Compound 40]: the pKi in assay [1] is 6.00 to 7.00. Take `CCS(=O)(=O)c1ccc(CNC(=O)c2cnc3c(c2)CN(Cc2ccc(C#N)cc2)[C@H]3[C@@H]2CCOC2)cc1` [Compound 48]: the pKi in assay [1] is < 6.00. The pIC50 in assay [2] is < 6.00. With `CCS(=O)(=O)c1ccc(CNC(=O)c2cnc3c(c2)CN(Cc2ccc(C#N)cc2)[C@H]3[C@H]2CCOC2)cc1` [Compound 50], the pKi in assay [1] is < 6.00. Further, in assay [2], the pIC50 was < 6.00. Consider `CCS(=O)(=O)c1ccc(CNC(=O)c2cnc3c(c2)CN(Cc2ccc(C#N)cc2)[C@@H]3[C@@H]2CCOC2)cc1` [Compound 51], for which the pKi in assay [1] was 6.00 to 7.00. In addition, in assay [2], the pIC50 was 6.00 to 7.00.

For `CCS(=O)(=O)c1ccc(CNC(=O)c2cnc3c(c2)CN(Cc2ccc(C#N)cc2)[C@@H]3[C@H]2CCOC2)cc1` [Compound 52], the pKi in assay [1] is 6.00 to 7.00. For the same compound, in assay [2], the pIC50 was 6.00 to 7.00. With `COc1cccc(C(C)(C)CNC(=O)c2cnc3c(c2)CN(Cc2ccc(C(F)(F)F)cc2)[C@H]3C(C)C)c1` [Compound 72], in assay [1], the pKi is 6.00 to 7.00. As for `COC(=O)C[C@H]1CC[C@H](CNC(=O)c2cnc3c(c2)CN(Cc2ccc(C(F)(F)F)cc2)[C@H]3C(C)C)CC1` [Compound 127], the pKi in assay [1] was 6.00 to 7.00.

As to `COC(=O)CC(NC(=O)c1cnc2c(c1)CN(Cc1ccc(C(F)(F)F)cc1)[C@H]2C(C)C)c1ccc(Br)cc1` (stereo partly drawn) [Compound 128], in assay [1], the negative logarithm of the Ki (pKi) was 6.00 to 7.00. `CCS(=O)(=O)c1ccc(CNC(=O)c2cnc3c(c2)CN(Cc2ccc(C(F)(F)F)cc2)[C@H]3C(C)C)nc1C` [Compound 143]: in assay [1], the pKi was > 7.00. Besides, in assay [2], the pIC50 is 6.00 to 7.00.
